This note sets out measurements from patent US12570711B2, “Platforms for co-stimulation, novel car designs and other enhancements for adoptive cellular therapy” (Angeles Therapeutics, Inc., priority 2017, dated 2026).

Experiment [1] concerns NF-κB. Briefly: Doxycycline-inducible expression (pSLIK-Tet-On) in T cells, NF-κB activity by Phospho-IκBα antibody and flow cytometry. The format is cell-based. The note with it: pSLIK-Tet-On vector in T cells. How it is done:
The expression of these costimulatory proteins can be controlled by expressing them using inducible promoters known in the art, such as Tet-inducible promoter or RheoGene system. In an embodiment, hNEMO-K277A mutant and hNEMO-K277A-DeltaV249-K255 are cloned in the pSLIK-Tet-On vector (Gopalakrishnan et al, Clinical Cancer Res; 19(18), 2013) and the resulting virus is used to infect T cells. […] NF-κB activity is measured by AlexaFlour-conjugated Phospho-IκBα antibody and flow cytometry.

In experiment [2] the test system is NF-κB. Briefly: p65 nuclear translocation, nuclear NF-κB and AP1 binding activity in transduced bone marrow-derived dendritic cells. The note with it: for p65 (RelA) localisation in DCs: level similar to LPS-treated DCs, not in untreated or control vector DCs. The format is cell-based, mouse. The procedure: Transduction of DCs and flow cytometry. Murine bone marrow-derived Dendritic cells (DCs) are prepared as previously described. Immature DCs are transduced on day 4 at an MOT of 20 with lentiviral vectors as described (Rowe H M et al, Molecular Therapy, 13, 2, 2006) and fed every 4 days with fresh medium containing granulocyte-macrophage colony-stimulating factor (50 ng/ml; from Peprotech). On day 5 posttransduction, DCs are harvested, washed, and blocked for Fc receptors before surface staining for maturation markers with the following biotin-conjugated Abs: anti-CD11c, anti-CD86, and anti-I-Ab (MHC class II) (all from BD Pharmingen); anti-CD40 (from Serotec); and anti-CD80, anti-ICAM-1, and anti-Kb (MHC class I) (all from eBioscience). A hamster isotype control Ab (biotin conjugated) is purchased from BD Pharmingen. Abs are then labeled with streptavidin RPE Cy-5 2o reagent (DakoCytomation) before flow cytometry. Lipopolysaccharide (LPS) (50 ng/ml) (Sigma) is added to untransduced DCs and left overnight as a positive control for maturation. Zymosan A (10 μg/ml) treatment (for 30 min at 37° C.) is used as a control for ERK activation.
Mouse BM-derived Dendritic cells (DCs) are infected with the lentivectors encoding human NEMO-K277A, human NEMO-K277A-deltaV249-K255, mouse NEMO-K270A and IKK2-S177E-S181E either alone or in combination with Ii-OVA.

With “hNEMO-K277A: human NEMO mutant K277A, constitutively active selective NF-κB activator used as accessory module”, the “expression and NF-κB activity on doxycycline treatment” value with NF-κB [1] was “induce hNEMO-K277A and hNEMO-K277A-DeltaV249-K255 expression and NF-κB activity”. In the experiment with NF-κB [2], the “activation of the MAPK pathway (nuclear AP1 binding activity)” value is on record as “no affect on the activation of the MAPK pathway”, the “nuclear NF-κB binding activity in transduced DCs” value is listed as “Increased nuclear NF-κB binding activity” and the “p65 (RelA) localisation in DCs” value is “nuclear translocation of p65 (RelA)”.

B1: hNEMO-K277A-DeltaV249-K255: mutant lacking aminoacid residues V249-K255 of human NEMO and carrying the K277A mutation (protein)
chain: MNRHLWKSQLCEMVQPSGGPAADQDVLGEESPLGKPAMLHLPSEQGAPETLQRCLEENQELRDAIRQSNQILRERCEELLHFQASQREEKEFLMCKFQEARKLVERLGLEKLDLKRQKEQALREVEHLKRCQQQMAEDKASVKAQVTSLLGELQESQSRLEAATKECQALEGRARAASEQARQLESEREALQQQHSVQVDQLRMQGQSVEAALRMERQAASEEKRKLAQLQVAYHQLFQEYDNHIKSSRGMQLEDLKQQLQQAEEALVAAQEVIDKLKEEAEQHKIVMETVPVLKAQADIYKADFQAERQAREKLAEKKELLQEQLEQLQREYSKLKASCQESARIEDMRKRHVEVSQAPLPPAPAYLSSPLALPSQRRSPPEEPPDFCCPKCQYQAPDMDTLQIHVMECIE
Consider B1, for which the “expression and NF-κB activity on doxycycline treatment” value in the experiment on NF-κB [1] is “induce hNEMO-K277A and hNEMO-K277A-DeltaV249-K255 expression and NF-κB activity”. In the experiment with NF-κB [2], the “activation of the MAPK pathway (nuclear AP1 binding activity)” value is given as “no affect on the activation of the MAPK pathway”, the “nuclear NF-κB binding activity in transduced DCs” value is on record as “Increased nuclear NF-κB binding activity” and the “p65 (RelA) localisation in DCs” value was “nuclear translocation of p65 (RelA)”.
